The record followed here is patent US9441024B2, “Glycosylated polypeptide and drug composition containing said polypeptide” (priority 2011, dated 2016).

Chains of the proteins cited; added tags and fusions are not shown. Lines headed by an entry give the natural chain unless they say otherwise; changes in a name come on top.
UniProt P30872, whole entry, species assumed: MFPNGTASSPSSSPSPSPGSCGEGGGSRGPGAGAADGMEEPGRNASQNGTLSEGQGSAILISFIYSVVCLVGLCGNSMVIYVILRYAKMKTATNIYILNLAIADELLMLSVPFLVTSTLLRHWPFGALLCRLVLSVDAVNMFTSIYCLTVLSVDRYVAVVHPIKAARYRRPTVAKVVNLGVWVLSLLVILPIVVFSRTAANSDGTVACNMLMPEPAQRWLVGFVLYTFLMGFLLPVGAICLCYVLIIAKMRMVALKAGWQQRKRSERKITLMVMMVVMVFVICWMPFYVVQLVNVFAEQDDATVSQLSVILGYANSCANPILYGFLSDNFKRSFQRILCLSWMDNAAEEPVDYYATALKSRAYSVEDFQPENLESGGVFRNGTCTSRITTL
UniProt P35346: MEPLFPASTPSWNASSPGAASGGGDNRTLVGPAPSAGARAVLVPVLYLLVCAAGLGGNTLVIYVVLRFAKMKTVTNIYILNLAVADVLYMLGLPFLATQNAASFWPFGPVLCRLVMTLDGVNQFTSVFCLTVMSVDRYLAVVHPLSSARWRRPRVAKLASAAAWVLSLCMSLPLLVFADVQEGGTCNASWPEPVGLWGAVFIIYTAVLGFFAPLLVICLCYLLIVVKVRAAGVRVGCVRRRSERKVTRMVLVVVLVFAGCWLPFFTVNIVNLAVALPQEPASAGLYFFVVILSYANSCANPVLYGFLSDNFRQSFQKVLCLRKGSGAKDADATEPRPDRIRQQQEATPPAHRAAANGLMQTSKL
UniProt P30874: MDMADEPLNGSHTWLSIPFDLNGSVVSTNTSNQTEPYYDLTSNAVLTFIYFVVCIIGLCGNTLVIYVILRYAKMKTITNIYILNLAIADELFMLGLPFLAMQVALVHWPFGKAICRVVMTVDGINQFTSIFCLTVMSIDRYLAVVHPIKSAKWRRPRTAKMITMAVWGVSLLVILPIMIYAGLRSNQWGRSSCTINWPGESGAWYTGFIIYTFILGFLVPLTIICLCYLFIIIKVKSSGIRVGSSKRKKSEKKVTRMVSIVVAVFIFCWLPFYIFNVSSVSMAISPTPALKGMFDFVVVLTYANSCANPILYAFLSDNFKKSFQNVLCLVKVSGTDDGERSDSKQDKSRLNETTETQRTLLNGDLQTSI
UniProt P31391: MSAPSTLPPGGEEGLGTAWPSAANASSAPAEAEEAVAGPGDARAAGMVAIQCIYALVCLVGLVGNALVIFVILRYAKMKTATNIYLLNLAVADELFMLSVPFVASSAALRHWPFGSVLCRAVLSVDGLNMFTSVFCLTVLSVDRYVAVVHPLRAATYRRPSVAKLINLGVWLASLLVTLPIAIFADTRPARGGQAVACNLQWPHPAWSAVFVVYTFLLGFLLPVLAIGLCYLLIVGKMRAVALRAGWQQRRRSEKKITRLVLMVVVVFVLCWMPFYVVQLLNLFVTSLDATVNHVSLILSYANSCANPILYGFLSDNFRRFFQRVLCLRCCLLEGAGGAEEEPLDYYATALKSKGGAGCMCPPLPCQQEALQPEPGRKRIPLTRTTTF
UniProt P32745: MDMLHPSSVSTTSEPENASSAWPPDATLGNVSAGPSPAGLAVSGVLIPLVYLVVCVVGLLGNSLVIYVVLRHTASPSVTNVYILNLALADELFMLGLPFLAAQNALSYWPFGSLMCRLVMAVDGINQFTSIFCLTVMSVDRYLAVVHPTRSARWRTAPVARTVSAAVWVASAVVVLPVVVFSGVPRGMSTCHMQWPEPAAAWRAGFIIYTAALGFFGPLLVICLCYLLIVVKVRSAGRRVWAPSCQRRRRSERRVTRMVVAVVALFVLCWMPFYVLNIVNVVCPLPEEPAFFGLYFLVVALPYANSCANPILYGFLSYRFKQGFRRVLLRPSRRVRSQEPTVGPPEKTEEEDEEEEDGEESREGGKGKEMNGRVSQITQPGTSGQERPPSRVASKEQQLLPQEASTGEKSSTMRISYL

Read-outs that look alike come from different tables or passages of the source.

The target in data set [1] is T1, SSTR1 (Homo sapiens, UniProt P30872). In words: Competitive binding assay, SSTR1 membrane sample. As to conditions: for IC50: read-out: SSTR1 IC50.
The target in another data set is SSTR5 (Homo sapiens, UniProt P35346). Kind of data set: Competitive binding assay, SSTR5 membrane sample. As to conditions: Table 3B, competitive binding assay (Example 69-2); for IC50: read-out: SSTR5 IC50.
Data set [2] is described as follows: Pharmacokinetics test with rats (intravenous and subcutaneous administration). As to conditions: rat; for AUC for subcutaneous administration as fraction of that of S1C(disialo)-SRIF28: s.c., Examples 70-87; for Extension of t1/2 compared to non-glycosylated SRIF28 / Increase of AUC compared to non-glycosylated SRIF28: administered intravenously (text on Tables 5B-5F); for Extension of t1/2 compared to non-glycosylated SRIF14 / Increase of AUC compared to non-glycosylated SRIF14: administered intravenously (text on Tables 5B, 5D); for Intravenous administration AUC / Subcutaneous administration AUC: Tables 5B-5F, unit from footnote of Table 5.

In data set [3] the target is T2, SSTR2 (Homo sapiens, UniProt P30874). Kind of data set: Competitive binding assay, SSTR2 membrane sample. As to conditions: Table 3B, competitive binding assay (Example 69-2); for IC50: read-out: SSTR2 IC50; for Ki: read-out: SSTR2 Ki.
Data set [4] addresses T1, SSTR1. In words: Agonist activity: cAMP production suppression, SSTR1 receptor expression cells. It counts as cell-based. The note with it: read-out: IC50 of agonist activity, SSTR1; Table 3E (Example 69-4).
In data set [5] the target is T2, SSTR2.
The next data set deals with SSTR4 (Homo sapiens, UniProt P31391). Kind of data set: Competitive binding assay, SSTR4 membrane sample. As to conditions: for Ki: read-out: SSTR4 Ki.
The target in data set [6] is T3, SSTR3 (Homo sapiens, UniProt P32745).
Data set [7] concerns the target T3, SSTR3. In words: Competitive binding assay, SSTR3 membrane sample. The note with it: Table 3B, competitive binding assay (Example 69-2); for IC50: read-out: SSTR3 IC50.
Data set [8] addresses T1, SSTR1.
Where [9] appears, read: Table 3B, competitive binding assay (Example 69-2).
Where [10] appears, read: Table 3A (Example 69-1), labeled ligand [125I]Tyr11-SRIF14.
Where [11] appears, read: subcutaneous vs intravenous, (AUC(sc)/Dose(sc))/(AUC(iv)/Dose(iv)), Table 5 (5A).

Consider Biotin-S1C(disialo)-SRIF28 [Example 46], for which the concentration for half-maximal inhibition (IC50) at SSTR1 [1] (setting [9]) worked out at 11 nM.
Regarding N5N(disialo)-SRIF28 [Example 30], the half-inhibitory concentration (IC50) on SSTR1 [1] (setting [10]) was 3.02 nM.
Consider “S1C(disialo(aminoethylamide))-SRIF28 [Example 59]”, for which the half-maximal inhibitory concentration (IC50) at SSTR5 came to 2.68 nM. The “AUC for subcutaneous administration as fraction of that of S1C(disialo)-SRIF28” value (shortened to “AUC … as fraction of that of S1C(disialo)-SRIF28”) in data set [2] is given as 1/7.
As for “Biotin-PEG linker-S1C(disialo)-SRIF28 [Example 47]”, the IC50 on SSTR2 [3] is 1.96 nM.
S1C(asialo)-SRIF28 [Example 27]: in [2], the “Extension of t1/2 compared to non-glycosylated SRIF28” value is recorded as 10 folds, the “Increase of AUC compared to non-glycosylated SRIF28” value is listed as 10 folds and the “AUC … as fraction of that of S1C(disialo)-SRIF28” value is recorded as “⅓-½”.
S1-4C(disialo)-SRIF28 [Example 68]: at SSTR5 (read-out: SSTR5 Ki), the Ki amounted to 5.32 nM. In data set [2], the “Extension of t1/2 compared to non-glycosylated SRIF28” value was 48 folds and the “Increase of AUC compared to non-glycosylated SRIF28” value was found to be 15 folds.
For S1-2C(asialo)-SRIF28 [Example 28], in data set [2], the “Extension of t1/2 compared to non-glycosylated SRIF28” value is given as 6 folds; the “Increase of AUC compared to non-glycosylated SRIF28” value amounted to 6 folds; the “AUC … as fraction of that of S1C(disialo)-SRIF28” value is “⅓-½ and ½”.
For the substance 2C(disialo)-R—K-SRIF14 [Example 50], the inhibition constant Ki at SSTR1 [1] (read-out: SSTR1 Ki, Table 3B, competitive binding assay (Example 69-2)) came to 40 nM. Besides, in data set [2], the “Extension of t1/2 compared to non-glycosylated SRIF14” value was found to be 63 folds and the “Increase of AUC compared to non-glycosylated SRIF14” value is given as 42 folds.
Consider S1C(Asn(disialo))-SRIF28 [Example 65], for which the IC50 on SSTR1 [4] was 2.6 nM.
For A9C(disialo)-SRIF28 [Example 3], the “BA (bioavailability)” value in data set [2] (setting [11]) came to 60%.
In the case of “C(disialo(aminoethylamide))/S1C(disialo)-SRIF28 [Example 67]”, in [2], the “Intravenous administration AUC” value is 3742 nM·min and the “Subcutaneous administration AUC” value is 1289 nM·min.
For A15C(disialo)-SRIF28 [Example 7], on SSTR2 [3], the Ki is 0.408 nM.
Turning to 3C(disialo)-R—K-SRIF14 [Example 51], in data set [2], the “Extension of t1/2 compared to non-glycosylated SRIF14” value was determined as 71 folds and the “Increase of AUC compared to non-glycosylated SRIF14” value was 36 folds.
30C(disialo)-SRIF28 [Example 14] registered a 50% inhibitory concentration (IC50) against SSTR2 [5] of 0.517 nM.
E12C(disialo)-SRIF28 [Example 4] came in with a Ki at SSTR2 [5] of 0.0596 nM.
On to “S1-2C(disialo(amide))-SRIF28 [Example 63]”, for which, on SSTR4 (setting [9]), the Ki was 2.67 nM.
At SSTR3 [6], N5C(disialo)-SRIF28 [Example 2] displayed a Ki of 0.099 nM. Also, in [2] (setting [11]), the “BA (bioavailability)” value is on record as 54%.
In the case of C(disialo)-SRIF14 [Example 17], the half-inhibitory concentration (IC50) on SSTR2 [5] came to 0.336 nM. The substance also displayed an inhibition constant (Ki) at SSTR3 [6] of 1.56 nM.
Take “C(disialo)-C12 linker-SRIF14 [Example 19]”: the Ki on SSTR4 (Table 3A (Example 69-1)) was 2.62 nM; at SSTR3 [6], 1.07 nM. In data set [2], the “Intravenous administration AUC” value turned out to be 1686 nM·min. Besides, the “Subcutaneous administration AUC” value in data set [2] is 345 nM·min.
As for S1-3C(asialo)-SRIF28 [Example 29], in data set [2], the “Extension of t1/2 compared to non-glycosylated SRIF28” value is 5 folds and the “Increase of AUC compared to non-glycosylated SRIF28” value was determined as 6 folds.
Take T26C(disialo)-SRIF28 [Example 12]: the concentration for half-maximal inhibition (IC50) on SSTR5 came to 400 nM.
With C(disialo)-K-SRIF14 [Example 42], at SSTR3 [7], the IC50 worked out at 3.65 nM.
In the case of S1C(GlcNAc)-SRIF28 [Example 55], at SSTR3 [7] (read-out: SSTR3 Ki), the Ki amounted to 0.565 nM.
On to N19C(disialo)-SRIF28 [Example 10], for which the results for the Ki on SSTR2 [5] and at SSTR3 [6] were 0.645 nM and 0.503 nM, respectively. Also, the concentration for half-maximal inhibition (IC50) at SSTR1 [1] (setting [10]) was found to be 10.1 nM.
As for R13C(disialo)-SRIF28 [Example 5], the IC50 at SSTR4 (read-out: SSTR4 IC50, Table 3A (Example 69-1)) turned out to be 0.43 nM.
For SRIF28 [reference compound], the inhibition constant Ki was 0.292 nM at SSTR1 [8], 0.144 nM on SSTR2 [5] and 0.0565 nM at SSTR2 [3]. Further, the IC50 was determined as 0.0368 nM on SSTR3 [6], 0.068 nM at SSTR2 [3] and 0.106 nM at SSTR3 [7]. The “BA (bioavailability)” value was found to be 5% in [2] (Table 5E (Example 86), s.c. versus i.v.) and 5% in [2] (setting [11]). Also, the “Bioavailability (BA)” value in [2] (text on Table 5A (Examples 71-75), s.c. versus i.v.) turned out to be 5%.
